# Experimental data from ChEMBL document CHEMBL1124523, “Binary antidotes for organophosphate poisoning: aprophen analogues that are both antimuscarinics and carbamates” (1989).
# Chains of the proteins cited; added tags and fusions are not shown. Residues count along the entry.
# UniProt Q8WMX0, 1-139: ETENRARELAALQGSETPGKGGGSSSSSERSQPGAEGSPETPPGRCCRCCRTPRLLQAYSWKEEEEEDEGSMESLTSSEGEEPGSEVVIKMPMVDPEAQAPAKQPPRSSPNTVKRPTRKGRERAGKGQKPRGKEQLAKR
# UniProt P08172, whole entry, looked up: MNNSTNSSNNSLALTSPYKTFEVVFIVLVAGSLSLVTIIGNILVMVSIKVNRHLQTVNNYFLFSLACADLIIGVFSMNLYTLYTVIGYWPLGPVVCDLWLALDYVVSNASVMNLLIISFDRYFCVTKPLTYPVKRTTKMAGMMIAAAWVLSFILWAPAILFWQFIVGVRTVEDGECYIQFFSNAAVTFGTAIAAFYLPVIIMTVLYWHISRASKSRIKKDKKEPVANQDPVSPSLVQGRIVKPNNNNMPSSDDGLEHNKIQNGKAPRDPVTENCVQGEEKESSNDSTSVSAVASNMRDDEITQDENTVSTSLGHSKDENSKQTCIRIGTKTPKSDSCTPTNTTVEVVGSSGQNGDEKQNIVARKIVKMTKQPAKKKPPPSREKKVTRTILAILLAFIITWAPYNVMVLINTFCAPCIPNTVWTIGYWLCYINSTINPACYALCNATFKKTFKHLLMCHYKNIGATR
# UniProt P10980, whole entry, looked up: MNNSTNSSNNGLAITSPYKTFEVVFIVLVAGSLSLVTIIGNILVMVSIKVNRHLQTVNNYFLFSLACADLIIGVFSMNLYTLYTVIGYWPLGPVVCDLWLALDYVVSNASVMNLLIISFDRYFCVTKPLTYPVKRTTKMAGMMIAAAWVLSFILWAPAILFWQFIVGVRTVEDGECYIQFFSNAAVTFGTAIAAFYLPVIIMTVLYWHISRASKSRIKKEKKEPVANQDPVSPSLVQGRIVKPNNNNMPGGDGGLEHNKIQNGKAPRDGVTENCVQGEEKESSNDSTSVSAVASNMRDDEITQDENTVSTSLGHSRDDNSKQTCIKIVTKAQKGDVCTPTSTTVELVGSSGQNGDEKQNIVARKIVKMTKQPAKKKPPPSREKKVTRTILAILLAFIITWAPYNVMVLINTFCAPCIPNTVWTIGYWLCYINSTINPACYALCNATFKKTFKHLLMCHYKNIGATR
# How the values were obtained:
# [1] = molecular target: T1, Muscarinic acetylcholine receptor M1 (Bos taurus, UniProt Q8WMX0); assay: Inhibition of [3H]NMS binding to cerebral cortex membranes which contain predominantly the Muscarinic acetylcholine receptor M1 subtypes
# [2] = molecular target: T2, Muscarinic acetylcholine receptor M2 (Homo sapiens, UniProt P08172); assay: Antimuscarinic activity on the acetylcholine-induced inhibition of contraction of guinea pig ileum which has M2 muscarinic receptor subtype.
# [3] = molecular target: T3, Muscarinic acetylcholine receptor M2 (Rattus norvegicus, UniProt P10980); assay: Inhibition of carbachol-induced release of alpha-amylase from pancreatic acinar cells from that of rat ileum contained the M2 receptor subtypes
# [4] = molecular target: T2, Muscarinic acetylcholine receptor M2; assay: Antimuscarinic activity on the acetylcholine-induced inhibition of contraction of guinea pig ileum which has Muscarinic acetylcholine receptor M2 subtype.
# [5] = molecular target: T3, Muscarinic acetylcholine receptor M2; assay: Binding affinity was determined from the inhibition of contraction of guinea pig ileum which has Muscarinic acetylcholine receptor M2 subtype.
# [6] = molecular target: T1, Muscarinic acetylcholine receptor M1; assay: Inhibition of [3H]NMS binding to cerebral cortex membranes which contain predominantly the Muscarinic acetylcholine receptor M1 subtypes; marginal active
# [7] = molecular target: T3, Muscarinic acetylcholine receptor M2; assay: Inhibition of carbachol-induced release of alpha-amylase from pancreatic acinar cells from that of rat ileum contained the M2 receptor subtypes; NA is not active
SMILES,Ki [1] [nM],pA2 [2],Ki [3] [nM],pA2 [4],Ki [5] [nM],Ki [6],Ki [7]
CCN(CC)CCOC(=O)C(C)(c1ccc(O)cc1)c1ccc(OC(=O)N(C)C)cc1 (stereo not drawn),3400,5.5,2400,–,–,–,–
CCN(CC)CCOC(=O)C(C)(c1ccccc1)c1ccc(O)cc1 (stereo not drawn),100,7.2,5.6,–,–,–,–
CCN(CC)CCOC(=O)C(C)(c1ccccc1)c1ccccc1,–,–,1.7,–,–,–,–
CCN(CC)CCOC(=O)C(C)(c1ccccc1)c1ccc(OC(=O)N(C)C)cc1 (stereo not drawn),150,–,–,7.1,42,–,–
CCN(CC)CCOC(=O)C(C)(c1ccc(O)cc1)c1ccc(O)cc1,2100,5.7,4900,–,–,–,–
CCN(CC)CCOC(=O)C(C)(c1ccc(OC(=O)N(C)C)cc1)c1ccc(OC(=O)N(C)C)cc1,–,–,–,–,–,Partially active,Not Active
CCN(CC)CCOC(=O)C(C)(c1ccccc1)c1ccc(OC(=O)NC)cc1 (stereo not drawn),26,–,–,7.3,2,–,–
